This is an account of results in patent publication US10765638B2, “Particle formulation with polycation complex” (Yale University, priority 2017, dated 2020).

The test system of this experiment is CD8-EGFR. Kind of experiment: Western blot of CD8-EGFR phosphorylation in SKMG3-CD8-EGFR cells. It counts as cell-based, human. To be noted: SKMG3 cells with stable expression of the CD8-EGFR. On the procedure: The CD8 cDNA was a gift from Paula Kavathas (Yale University). The CD8-EGFR was constructed according to a strategy that generated a constitutively active IGF-1R (24). The extracellular domain of CD8 was PCR amplified with a 5′ XbaI and 3′ SalI restriction site and cloned in-frame with the intracellular kinase domain of EGFR using the pDCB5-EGFR plasmid. SKMG3-CD8-EGFR cells were generated by Lipofectamine (Life Technologies) transfection of the plasmid followed by selection with 500 μg/ml G418.
On the technique in general: Immunoblotting shows a protein as a band on a membrane.

As for “cetuximab: an antibody that recognizes the EGFR extracellular domain [reference compound]”, the “CD8-EGFR phosphorylation (phospho-Y1068, phospho-Y845)” value was “insensitive”.
